What all share (assay): crystal structure
Assay [1] addresses N-terminally truncated construct of human AdipoR2 (residues 100-386) (human, UniProt Q86V24).
Assay [2] concerns the target human ADIPOR1 as crystallised in entry 3WXV (revised structure 5LXG) (human, UniProt Q96A54).
The target in assay [3] is human ADIPOR2 as crystallised in entry 3WXW (revised structure 5LWY, S2) (human, UniProt Q86V24).

The chains behind the UniProt entries cited, without tags or fusion partners. Where a name states a change or a piece, a line headed by the entry shows the natural chain unless it says otherwise. Residues count along the entry.
UniProt Q86V24, 100-386: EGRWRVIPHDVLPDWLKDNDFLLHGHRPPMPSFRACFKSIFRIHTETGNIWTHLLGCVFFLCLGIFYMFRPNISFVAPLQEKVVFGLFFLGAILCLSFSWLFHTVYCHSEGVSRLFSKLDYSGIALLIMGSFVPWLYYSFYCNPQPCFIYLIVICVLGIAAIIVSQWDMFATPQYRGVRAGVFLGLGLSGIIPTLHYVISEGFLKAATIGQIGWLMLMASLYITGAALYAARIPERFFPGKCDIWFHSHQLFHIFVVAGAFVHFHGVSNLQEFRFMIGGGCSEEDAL
UniProt Q96A54: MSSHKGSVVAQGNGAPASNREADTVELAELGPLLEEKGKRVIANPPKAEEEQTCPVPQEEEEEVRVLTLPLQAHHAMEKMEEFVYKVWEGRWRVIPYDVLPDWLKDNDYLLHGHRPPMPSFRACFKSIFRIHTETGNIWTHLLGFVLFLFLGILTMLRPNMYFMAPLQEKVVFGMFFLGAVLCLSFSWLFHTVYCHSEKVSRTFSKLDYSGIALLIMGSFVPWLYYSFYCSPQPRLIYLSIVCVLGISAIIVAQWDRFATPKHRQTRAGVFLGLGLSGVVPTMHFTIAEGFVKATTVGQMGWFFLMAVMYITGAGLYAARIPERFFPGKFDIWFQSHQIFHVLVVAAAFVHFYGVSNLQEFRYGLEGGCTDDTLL

B1: single chain variable fragment (scFv) of the anti-ADIPOR monoclonal antibody (scFv, V domains shown)
VH: EVLLQQSGPELVKPGASVRITCKASGYTFTDFNMDWVKQSPGKSLEWIGDFNPNSGGSIYNQKFKDKATFTVDKSSSTAYMELRSLTFEDTAVYYCARETGTAWFAYWGQGTLVTVSA
VL: DIQMTQSPASLSASVGETVTITCRASGNIHNFLAWYQQKQGKSPQVLVYNAKTLADGVPSRFSGSGSGTQYSLKINSLQPEDFGSYYCQQFWSTPYTFGGGTKLEIN
On to B1, for which the binding result in assay [1] is on record as “binds”.

B2: Fv fragment of the anti-ADIPOR antibody (as in the deposited entries 3WXV and 3WXW) (antibody, V domains shown)
VH: EVLLQQSGPELVKPGASVRITCKASGYTFTDFNMDWVKQSPGKSLEWIGDFNPNSGGSIYNQKFKDKATFTVDKSSSTAYMELRSLTFEDTAVYYCARETGTAWFAYWGQGTLVTVSA
VL: DIQMTQSPASLSASVGETVTITCRASGNIHNFLAWYQQKQGKSPQVLVYNAKTLADGVPSRFSGSGSGTQYSLKINSLQPEDFGSYYCQQFWSTPYTFGGGTKLEIN
As to B2, the binding result in assay [2] and in assay [3] was “binds” throughout.

These data come from publication PMC5595237 (Nature, 2017).
